Measured values: patent publication EP4825857A1, “TRICYCLIC FUSED HETEROCYCLIC PDE3/4 DUAL INHIBITOR, AND PREPARATION AND USE THEREFOR” (dated 2026)
Values joined by “and” are separate entries in the source; they are usually repeats but may differ in a detail not shown here. Equal values may be shown once.

Amino acid sequences for entries named in this document (tags omitted). Chains listed by the source or under a name are the forms on record and can include a tag or linker. Residues count along the entry.
UniProt Q9NP56, whole entry: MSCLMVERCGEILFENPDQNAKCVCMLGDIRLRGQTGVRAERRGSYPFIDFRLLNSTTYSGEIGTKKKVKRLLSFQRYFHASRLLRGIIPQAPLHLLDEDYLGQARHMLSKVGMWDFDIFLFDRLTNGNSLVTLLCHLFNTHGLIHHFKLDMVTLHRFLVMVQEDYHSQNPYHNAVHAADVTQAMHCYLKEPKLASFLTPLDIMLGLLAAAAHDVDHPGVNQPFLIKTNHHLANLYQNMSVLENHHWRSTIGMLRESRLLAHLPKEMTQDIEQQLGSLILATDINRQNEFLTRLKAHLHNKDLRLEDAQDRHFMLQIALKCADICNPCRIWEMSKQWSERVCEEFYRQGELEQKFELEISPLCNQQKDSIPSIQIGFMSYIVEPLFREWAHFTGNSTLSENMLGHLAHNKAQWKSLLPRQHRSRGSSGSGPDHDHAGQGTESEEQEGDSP
UniProt O00408, 1-920 with tags or gaps: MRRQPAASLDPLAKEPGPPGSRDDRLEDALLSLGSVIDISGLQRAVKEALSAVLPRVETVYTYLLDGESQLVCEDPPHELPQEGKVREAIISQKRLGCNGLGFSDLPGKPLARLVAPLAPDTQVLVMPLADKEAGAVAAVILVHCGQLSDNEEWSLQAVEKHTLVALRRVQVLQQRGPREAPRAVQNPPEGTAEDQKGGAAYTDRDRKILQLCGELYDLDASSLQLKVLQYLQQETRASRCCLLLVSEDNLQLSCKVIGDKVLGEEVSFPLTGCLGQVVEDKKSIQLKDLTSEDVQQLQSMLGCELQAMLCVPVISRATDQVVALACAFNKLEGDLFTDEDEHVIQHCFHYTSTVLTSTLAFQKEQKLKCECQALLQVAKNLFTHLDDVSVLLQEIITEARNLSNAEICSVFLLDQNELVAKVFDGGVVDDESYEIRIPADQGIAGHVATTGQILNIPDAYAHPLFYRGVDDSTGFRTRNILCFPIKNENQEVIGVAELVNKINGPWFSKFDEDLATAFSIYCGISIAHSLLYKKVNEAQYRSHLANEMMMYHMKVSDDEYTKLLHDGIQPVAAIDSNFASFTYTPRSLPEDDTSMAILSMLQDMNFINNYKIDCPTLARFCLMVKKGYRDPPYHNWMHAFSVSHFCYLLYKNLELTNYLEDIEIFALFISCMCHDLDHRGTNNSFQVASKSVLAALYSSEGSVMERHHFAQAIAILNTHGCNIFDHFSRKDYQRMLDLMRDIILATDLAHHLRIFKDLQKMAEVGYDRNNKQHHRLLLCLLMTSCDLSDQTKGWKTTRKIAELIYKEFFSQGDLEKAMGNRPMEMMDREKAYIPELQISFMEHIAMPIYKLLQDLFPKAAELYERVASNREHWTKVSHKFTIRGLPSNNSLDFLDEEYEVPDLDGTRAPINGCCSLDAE

Tests used:
[1] = test system: acetylcholine chloride-induced airway constriction in guinea pigs; assay: Guinea pig model of airway constriction induced by acetylcholine chloride (inhaled compound, airway resistance); conditions: 2 h after single nebulized inhalation, acetylcholine 25 to 100 µg/kg
Description: • (1) The inhibitory effect of the inhaled test compound, Compound 10-2 of the present disclosure, on acetylcholine chloride-induced airway constriction in guinea pigs was evaluated. 40 male Hartley guinea pigs were randomly divided into four groups: a negative control group (clean air, 60-min inhalation), a low-dose test group (10-min inhalation), a medium-dose test group (20-min inhalation), and a high-dose test group (60-min inhalation), with 10 animals per group. The animals received a single-inhalation administration. Approximately 2 h after inhalation, the animals were anesthetized. The trachea and jugular vein were surgically exposed. The trachea was cannulated, and a catheter was inserted into the jugular vein. Each animal was placed on the support platform of a whole-body plethysmograph and connected to the respiratory circuit. […] Airway resistance was measured using an AniRes2005 animal pulmonary function analysis system.
(2) The inhibitory effect of the inhaled test compound, Compound 1-2 of the present disclosure, on acetylcholine chloride-induced airway constriction in guinea pigs was evaluated. […] Acetylcholine chloride was administered at different doses via the jugular venous catheter, and airway resistance was measured using the AniRes2005 animal pulmonary function analysis system.

PDE5A1 = PDE5A1 (Homo sapiens, UniProt O76074); assay: PDE enzyme activity inhibition assay II (fluorescence polarization); conditions: read-out: IC50, nM PDE5A1; FP assay II, Table 5
Description: (§1) In a reaction buffer, i.e., 1× IMAP Reaction Buffer containing 0.1% BSA and supplemented with 1 mM DTT, a PDE enzyme solution and a substrate solution (FAM-cyclic AMP/cyclic AMP) were prepared. The positive control was prepared at an initial concentration of 1/10 µM for the PDE assay and was diluted 3-fold, with a 10+0 dose design. Using the acoustic liquid handling technology (Echo 655), 0.05 µL of each compound in 100% DMSO was transferred into a 384-well plate (Corning 4514), followed by centrifugation at 1,000 rpm for 1 min. Then, 2.5 µL of the PDE enzyme solution was transferred into the 384-well reaction plate, followed by centrifugation at 1,000 rpm for 1 min and incubation at 25 °C for 10 min. Subsequently, 2.5 µL of the substrate solution was transferred into the 384-well reaction plate, followed by centrifugation at 1,000 rpm for 1 min and incubation at 25 °C for 60 min. Then, 15 µL of a binding reagent mixture was transferred into the 384-well reaction plate, followed by centrifugation at 1,000 rpm for 1 min and incubation at 25 °C for 60 min. Finally, the FP signal was measured using a BMG PHERAstar FSX plate reader. IC50 values and nonlinear regression curve fitting were obtained using GraphPad Prism software.
(§2) The inhibitory activities of the compounds against PDE enzymes were evaluated using the FP method, with RPL-554 and compound D7 as control compounds. The detailed test method was the same as that described in PDE Enzyme Activity Inhibition Assay I. The structural formulae of RPL-554 and compound D7 are shown below. [drawing 183]

PDE7B = PDE7B (Homo sapiens, UniProt Q9NP56); assay: as above; conditions: read-out: IC50, nM PDE7B; FP assay II, Table 5
Description: as §1, §2

PDE2A1 = PDE2A1 (Homo sapiens, UniProt O00408); assay: as above; conditions: read-out: IC50, nM PDE2A1; FP assay II, Table 5
Description: as §1, §2

[2] = test system: Nebulized Acetylcholine-Induced Airway Constriction in Mice; assay: Nebulized acetylcholine-induced airway constriction in mice (airway resistance RL); conditions: for Baseline value / 15 mg/mL ACh challenge / Challenge-induced increase: airway resistance (RL), single animal; for Baseline value: about 0.5 h after nebulized administration (14 mg/mL, 400 µL), before ACh challenge; for 15 mg/mL ACh challenge: after nebulized ACh 15 mg/mL, 20 µL, 30 s; for 15 mg/mL ACh challenge / Challenge-induced increase / Mean: compound 14 mg/mL; for Inhibition (%): inhibition of ACh challenge-induced increase of airway resistance, compound 14 mg/mL nebulized; for Mean: mean of challenge-induced increase of airway resistance, 3 animals
Description: Preparation of test compound: the test compounds were weighed as pure compounds without considering impurities due to the high purity of the test compounds. The test compound was prepared at a concentration of 10 mg/mL, using a pH 3.2 citric acid-disodium hydrogen phosphate buffer containing 25% DMSO as the solvent.
Administration of test compounds: The test compounds were administered to mice by oronasal nebulization using a NAM system from DSI. Each mouse received a total volume of 400 µL, delivered in two nebulization sessions of 5 min each. The model group received an equal volume of vehicle by nebulization.
Newly received experimental animals were quarantined for 3 days and grouped as described above. Airway nebulized administration was performed using the NAM system, with the nebulization procedure consisting of 5-min nebulization (200 µL), a 3-min interval, and another 5-min nebulization (200 µL). Approximately 0.5 h after completion of nebulized administration, acetylcholine was nebulized using the RC system (15 mg/mL, 20 µL, 30 s, prepared in 0.9% normal saline) to challenge the animals to induce airway constriction, and changes in airway resistance (RL) were simultaneously measured using the RC instrument.

TNF-α = assay: LPS-induced inflammatory model in human monocytes, TNF-α in cell culture supernatant; conditions: LPS 1 µg/mL, 24 h, 0.78 and 1.56 µmol/L, compared with the model control group
Description: Human monocytes were resuspended in RPMI 1640 complete medium containing 1% fetal bovine serum (FBS) and seeded into 96-well plates at a density of 1 × 10^6 cells/mL, with 100 µL of cell suspension each well. The cells were divided into 14 groups, with six replicates per group, including a normal control group, a model control group, RPL-554 low- and high-dose positive control groups (0.78 and 1.56 µmol/L), Compound 1-2 low- and high-dose groups (0.78 and 1.56 µmol/L), Compound 10-2 low- and high-dose groups (0.78 and 1.56 µmol/L), Compound 12-1 low- and high-dose groups (0.78 and 1.56 µmol/L), and Compound 19 low- and high-dose groups (0.78 and 1.56 µmol/L). The working concentration of LPS in the model control group and compound-treated groups was 1 µg/mL. The cells were further incubated in the absence or presence of LPS and the compounds (5% CO2, 37°C). After 24 h, the cell culture supernatants were collected and centrifuged at 2,000-3,000 × g for 5 min. The precipitate was removed, and the supernatants were collected for determination of TNF-α levels.

Question: Which “inhibition of airway constriction (airway resistance)” value ([1]; delivered doses 0.171, 0.341 and 1.024 mg/kg) does the source give for `COc1cc2c(cc1OC)-c1cc(N(c3c(C)cc(C)cc3C)C(C)CNC(=O)c3ncc[nH]3)nc(=O)n1CC2` (single isomer, unassigned) [Compound 10-2] here?
Answer: significantly inhibited airway constriction

Question: What does the source list for `COc1cc2c(cc1OC)-c1cc(=Nc3c(C)cc(C)cc3C)n(CCNC(N)=O)c(=O)n1CC2`?
Answer: IC50 (PDE5A1): > 10000 nM; IC50 (PDE7B): > 10000 nM; IC50 (PDE2A1): 3170 nM; Baseline value [2]: 1 (2×) and 0.9; 15 mg/mL ACh challenge [2]: 5.5 and 10.3 and 9.9; Challenge-induced increase [2]: 4.5 and 9.4 and 8.9; Inhibition (%) [2]: 28.3%; Mean [2]: 7.6; TNF-α levels in the cell culture supernatants (TNF-α): showed a decrease with statistic significance

Question: With `COc1cc2c(cc1OC)-c1cc(N(c3c(C)cc(C)cc3C)C(C)CNC(N)=O)nc(=O)n1CC2` (single isomer, unassigned) [Compound 1-2] as the compound, how does the “inhibition of airway constriction (airway resistance)” value ([1]; delivered doses 0.235, 0.470 and 1.174 mg/kg) read?
Answer: significantly inhibited airway constriction

Question: What about the IC50 (PDE5A1) of the same compound?
Answer: 7580 nM

Question: And the IC50 (PDE7B)?
Answer: 9950 nM

Question: And the IC50 (PDE2A1)?
Answer: 1350 nM

Question: And the Baseline value [2]?
Answer: 1.0

Question: What about the “15 mg/mL ACh challenge” value [2] of the same compound?
Answer: 3.1 and 1.9 and 2.3

Question: What about the Challenge-induced increase [2] of the same compound?
Answer: 2.1 and 0.9 and 1.3

Question: What about the “Inhibition (%)” value [2] of the same compound?
Answer: 86.5%

Question: And the Mean [2]?
Answer: 1.4
